Patent US20130197085A1, “AGENT AND METHOD FOR STABILIZING MEMBRANE PROTEIN” (priority 2007, published 2013)

By UniProt entry, the sequences of proteins in these tests, tags left out.
UniProt O95342, whole entry L339V: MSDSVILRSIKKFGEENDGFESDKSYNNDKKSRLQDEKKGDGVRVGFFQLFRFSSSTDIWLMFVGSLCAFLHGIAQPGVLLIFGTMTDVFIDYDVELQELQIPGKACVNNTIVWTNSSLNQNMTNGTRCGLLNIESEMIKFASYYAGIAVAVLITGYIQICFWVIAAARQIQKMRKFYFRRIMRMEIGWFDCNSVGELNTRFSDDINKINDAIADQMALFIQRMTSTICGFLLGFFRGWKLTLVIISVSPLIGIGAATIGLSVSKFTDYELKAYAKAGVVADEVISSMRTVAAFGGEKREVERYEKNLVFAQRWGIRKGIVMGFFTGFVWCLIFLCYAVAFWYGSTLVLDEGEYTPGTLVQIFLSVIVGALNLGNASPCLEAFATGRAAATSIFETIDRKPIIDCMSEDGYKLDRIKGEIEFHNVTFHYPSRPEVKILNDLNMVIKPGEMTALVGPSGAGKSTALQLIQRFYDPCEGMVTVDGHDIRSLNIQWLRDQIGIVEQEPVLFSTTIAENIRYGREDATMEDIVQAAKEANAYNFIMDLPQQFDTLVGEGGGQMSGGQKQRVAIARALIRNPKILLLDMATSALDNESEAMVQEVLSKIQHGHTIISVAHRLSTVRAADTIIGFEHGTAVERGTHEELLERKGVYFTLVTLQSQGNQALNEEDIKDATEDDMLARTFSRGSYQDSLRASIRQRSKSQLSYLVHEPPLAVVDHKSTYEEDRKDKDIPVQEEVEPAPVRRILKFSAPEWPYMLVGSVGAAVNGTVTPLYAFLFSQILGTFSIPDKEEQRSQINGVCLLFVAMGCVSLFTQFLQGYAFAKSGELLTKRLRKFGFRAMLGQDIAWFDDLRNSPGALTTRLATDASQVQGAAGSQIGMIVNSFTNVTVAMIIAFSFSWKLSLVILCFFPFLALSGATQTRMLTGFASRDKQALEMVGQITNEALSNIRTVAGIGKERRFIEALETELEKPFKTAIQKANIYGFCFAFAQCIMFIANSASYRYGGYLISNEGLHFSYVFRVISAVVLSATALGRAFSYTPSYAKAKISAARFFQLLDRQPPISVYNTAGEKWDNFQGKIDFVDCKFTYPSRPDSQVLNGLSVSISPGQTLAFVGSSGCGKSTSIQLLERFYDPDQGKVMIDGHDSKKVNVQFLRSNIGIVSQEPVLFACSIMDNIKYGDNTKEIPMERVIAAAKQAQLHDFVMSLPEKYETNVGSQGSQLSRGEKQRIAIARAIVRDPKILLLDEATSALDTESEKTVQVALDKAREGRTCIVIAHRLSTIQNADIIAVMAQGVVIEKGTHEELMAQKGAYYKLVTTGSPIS

Biological target: T1, wild-type BSEP (Homo sapiens, UniProt O95342, L339V)
T1 construct: expressed in transfected cells; host or cells: MDCKII cells infected with recombinant adenovirus
Test: Transcellular transport assay of [^3H] TC across MDCKII monolayer
Type: cell-based
Conditions: other carboxylic acids, 1 mM, 24 hours; FIG. 10
Procedure: MDCKII cells were dispersed on a Transwell membrane insert (pore size: […]; Falcon) of a 24-well plate, resulting in a density of 1.5×10^5 cells/insert. Two days after the culture, the confluent cells were infected with recombinant adenoviruses having the cDNAs of wild-type, E297G and D482G BSEPs, and GFP, at 50 MOI. […] After completion of the treatment for 24 hours, a transcellular transport assay was carried out (see Mita et al., Am J Physiol Gastrointest Liver Physiol 290: G550-G556, 2006).
The apparent efflux clearance across the apical membrane (PSapical) was calculated by dividing a steady rate of the transcellular transport of [^3H] TC for 2 hours by the intracellular concentration of the [^3H] TC at the termination of the experiment (2 hours later).

## CCCCCCCC(=O)O [octanoic acid]
  efflux of [^3H] TC from the base side to the apical side (in words): increased
